The target in this test is Bruton's tyrosine kinase (Btk) (Homo sapiens, UniProt Q06187).

Sequences of proteins named here, by UniProt entry; tags and fusion partners are left off. Residues count along the entry.
UniProt Q06187, 2-659: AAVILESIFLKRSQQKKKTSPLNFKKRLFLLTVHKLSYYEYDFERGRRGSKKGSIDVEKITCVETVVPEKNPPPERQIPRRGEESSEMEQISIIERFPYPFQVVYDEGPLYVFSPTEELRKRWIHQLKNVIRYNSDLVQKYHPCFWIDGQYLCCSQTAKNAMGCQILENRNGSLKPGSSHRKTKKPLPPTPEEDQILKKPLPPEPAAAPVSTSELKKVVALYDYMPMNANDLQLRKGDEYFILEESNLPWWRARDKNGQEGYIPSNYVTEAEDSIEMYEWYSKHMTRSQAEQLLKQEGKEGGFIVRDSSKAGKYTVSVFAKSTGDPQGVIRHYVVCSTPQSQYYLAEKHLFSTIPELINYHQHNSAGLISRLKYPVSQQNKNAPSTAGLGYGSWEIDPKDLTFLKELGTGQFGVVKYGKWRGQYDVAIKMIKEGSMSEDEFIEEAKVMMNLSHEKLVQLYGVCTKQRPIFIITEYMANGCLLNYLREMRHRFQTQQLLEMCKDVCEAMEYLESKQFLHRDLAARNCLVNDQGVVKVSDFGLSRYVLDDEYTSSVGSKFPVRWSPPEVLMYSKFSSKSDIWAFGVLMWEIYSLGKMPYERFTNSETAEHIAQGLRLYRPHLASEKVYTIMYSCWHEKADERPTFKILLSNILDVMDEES

Consider 1 substance from PMC4772718 (Bioconjugate chemistry, 2015).

A word on the IC50: it is the concentration needed to halve the response being measured. Ibrutinib-SiR-COOH had an IC50 of 123 nM.
